Experimental data as given in paper PMC11023938 (Nature, 2024).
Values joined by “and” are separate entries in the source; they are usually repeats but may differ in a detail not shown here. Equal values may be shown once.

Columns and labels:
[1] = tested on: bone marrow-derived macrophages; assay: Macrophage efferocytosis of neutrophils; format: cell-based, mouse
Description: An efferocytosis assay kit (Cayman, 601770) was used following the manufacturer’s instructions. Neutrophils were labelled with CFSE and cultured in RPMI with 2% serum for 12 h to induce cell death. Bone marrow-derived macrophages cultured for 7 days were seeded at a density of 4 × 10^5 cells per well in a 6-well plate with DMEM/F12 containing 10% FBS and 100 units ml^−1 penicillin/streptomycin. […] Macrophages were collected, labelled with CytoTell Blue, and then incubated with CFSE-labelled dead/dying neutrophils at different ratios (1:1, 1:2, and 1:4) at 37 °C for 15 min. The reaction was stopped by washing cells with ice-cold PBS containing 5% FBS and 1 mM EDTA. Cells were analysed with BD LSR Fortessa X-20 and FlowJo software (BD Biosciences). Macrophages were identified by CytoTell Blue-positive staining, and the efferocytosis index was calculated as the percentage of CFSE-positive cells in CytoTell Blue-labelled macrophages.
Macrophages (4 × 10^5 cells per well in a 6-well plate) were transfected with 10 nM scrambled siRNA (Silencer Select Negative Control No. 1 siRNA, Thermo Fisher, 4390843) or Silencer Select Pre-Designed siRNA against mouse TSP-1 (Thermo Fisher, s124596) using Reduced-Serum Medium (Opti-MEM, Gibco) and Lipofectamine RNAiMAX (Invitrogen, 51985034) for 6 h. The medium was then replaced with fresh culture medium (DMEM/F12 with 10% FBS). […]

HaCaT keratinocytes = assay: Proliferation assay (CyQUANT), keratinocytes; format: cell-based; settings: for Proliferation assay, Keratinocytes: each grid row one replicate
Description: Human umbilical vein endothelial cells (HUVECs; Sigma, 200P-05N) cultured in EGM-2 medium (Lonza, CC-4176) up to 3 passages, and primary mouse fibroblasts from C57BL/6 J mouse tails[26] (passages 2–3) were used. MCDB-131 medium (Thermo Fisher Scientific) with 100 mg ml^−1 penicillin/streptomycin and 2 mM glutamine was employed for proliferation assays. C2C12 mouse myoblasts (CellBank Australia) were cultured in a 1:1 ratio of DMEM to F10 medium (2 mM glutamine, 10% FBS, 100 units ml^−1 penicillin/streptomycin). HaCaT keratinocytes (a gift from R. Boyd) were cultured in DMEM without Ca^2+ and Mg^2+ (2 nM glutamine, 10% Chelex-treated FBS, 0.03 nM calcium chloride, 100 units ml^−1 penicillin/streptomycin) for at least 3 passages. Cells obtained from vendors were authenticated and certified negative for Mycoplasma contamination. For proliferation assays, FBS was reduced to 2% or kept at 10% for 24 h. […] Incubation for 48 h (fibroblasts, C2C12) or 72 h (HUVECs, HaCaTs) at 37 °C with 5% CO2 followed. Proliferation was determined using the CyQUANT Cell Proliferation Assay (Invitrogen), presented as fold change over basal proliferation (medium only). PerkinElmer EnVision multi-mode plate reader with EnSpire Manager software was used.

[2] = tested on: Thbs1 expression in neutrophils; assay: Gene expression (RNA-seq, qPCR of Thbs1) in neutrophils; format: cell-based, mouse; settings: CGRP 1 nM, 4 h
Excerpt: After collection, RNA extraction used the RNeasy Plus Micro Kit (Qiagen). For PCR with reverse transcription (RT–PCR) and quantitative PCR (qPCR), reverse transcription used ReverTra Ace (Toyobo). RT–PCR primers were: Human_Calcrl 5′-[…]-3′ and 5′-[…]-3′; Human_Ramp1 5′-[…]-3′ and 5′-[…]-3′; Mouse_Calcrl 5′-[…]-3′ and 5′-[…]-3′; Mouse_Ramp1 5′-[…]-3′ and 5′-[…]-3′. Human or mouse GAPDH primers were from Integrated DNA Technologies (51-01-07-12 and 51-01-07-13, respectively). PCR products were analysed by gel electrophoresis. qPCR was performed using LightCycle96 with software LightCycle96 (Roche Diagnostics) and TaqMan Assay primers from Thermo Fisher Scientific (Thbs1, Mm00449032_g1; Gapdh, Mm99999915_g1). For RNA-seq, RNA quantity and quality assessment, library preparation and sequencing were performed at the Medical Genomics Facility, Monash Health Translation Precinct (MHTP). RNA quantity was assessed using Qubit. RNA samples (20 ng) with RNA integrity number (RIN) value ≥ 7 were used for library preparation. […] Standard Illumina R1 primer was used (main cDNA read), followed by standard i7 primer for index or unique molecular identifier. R2 primer was present but not used as it will read into poly-A tail. […]
Fastq files were processed using the nfCore/RNAseq (v3.2) pipeline using the umi function. Reads were aligned to the Mus musculus GRCm38 reference using STAR aligner. […]

C57BL/6 J mice = assay: Spontaneous pain behaviour assessment; format: in vivo, mouse; settings: intraplantar 1 μg wild-type CGRP or equimolar eCGRP, right hind paw, over 48 h, n = 8

Substance: calcitonin gene-related peptide [CGRP]
- effect of CGRP on efferocytosis upon Thbs1 knockdown ([1]; CGRP 1 nM, Thbs1 siRNA 10 nM): abolished
- macrophage efferocytosis ([1]; CGRP 1 or 20 nM pre-treatment 24 h, in the absence and presence of IL-1β and TNF): marked increase
- Proliferation assay, Keratinocytes (HaCaT keratinocytes; 1nM CGRP, medium 2% FBS): 1.60 and 1.96 and 1.38 and 1.05
- Proliferation assay, Keratinocytes (HaCaT keratinocytes; 1nM CGRP, medium 10% FBS): 1.05 and 0.70 and 0.74
- Proliferation assay, Keratinocytes (HaCaT keratinocytes; 20nM CGRP, medium 2% FBS): 0.98 and 1.00 and 1.16 and 1.14
- Proliferation assay, Keratinocytes (HaCaT keratinocytes; 20nM CGRP, medium 10% FBS): 1.17 and 0.81 and 0.84 and 0.94
- proliferation of keratinocytes (HaCaT keratinocytes; CGRP 1 or 20 nM, 2% or 10% FBS, 72 h): no significant effect
- Thbs1 expression in neutrophils ([2]; RNA-seq): most upregulated gene
- Thbs1 expression in Ramp1−/− neutrophils ([2]; qPCR): did not upregulate
- pain behaviours (C57BL/6 J mice): did not elicit significant pain behaviours
